The text below walks through data of patent US20200016173A1 (CHINA MEDICAL UNIVERSITY, priority 2016, published 2020).

This series concerns SC-M1 human GCa cell line. Kind of series: cytotoxic effect of CYP19A1 inhibitors on SC-M1 cells. The format is cell-based. The following applies: 48-hr culture, exemestane within 100 μM treatments.

For `CC(C)(C#N)c1cc(Cn2cncn2)cc(C(C)(C)C#N)c1` [anastrazole], the cytotoxic effect result is “did not produce obviously cytotoxic effect”. With `N#Cc1ccc(C(c2ccc(C#N)cc2)n2cncn2)cc1` [letrozole], the cytotoxic effect entry is “did not produce obviously cytotoxic effect”.
